The source of these data is patent publication US7776527B2, “Methods and compositions for reducing microbial induced apoptosis” (The Regents of the University of California, priority 2003, dated 2010).

The assay deals with bone marrow derived macrophages (BMDMs). The assay is classed as cell-based, mouse.

B1: IFN-β: type I IFN (protein, UniProt P01574 22-187, looked up)
Interferon beta: MSYNLLGFLQRSSNFQCQKLLWQLNGRLEYCLKDRMNFDIPEEIKQLQQFQKEDAALTIYEMLQNIFAIFRQDSSSTGWNETIVENLLANVYHQINHLKTVLEEKLEKEDFTRGKLMSSLHLKRYYGRILHYLKAKEYSHCAWTIVRVEILRNFYFINRLTGYLRN
With B1, the “apoptosis of BMDMs, agent alone” value (IFN-β 1000 U/ml alone, 18 hrs) is “did not induce apoptosis”. Further, the “sensitization of BMDMs to LPS-induced apoptosis” value (with LPS, without SB202190) is recorded as “rendered them susceptible to LPS-induced apoptosis”. Also, the “effect on apoptosis upon incubation with LPS+SB202190” value (wt BMDMs or J774A.1 macrophage-like cells) is given as “potentiated the apoptosis”.
